{
  "sequences": {"note": "Chains of the proteins cited; added tags and fusions are not shown.", "UniProt A0A098SJI9, entry or part of it": "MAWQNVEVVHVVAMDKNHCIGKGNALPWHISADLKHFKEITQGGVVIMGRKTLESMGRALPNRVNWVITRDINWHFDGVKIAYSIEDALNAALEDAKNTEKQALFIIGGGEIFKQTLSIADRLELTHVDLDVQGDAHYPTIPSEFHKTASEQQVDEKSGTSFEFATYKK"},
  "source": "paper PMC6821926",
  "about": "“Diaminoquinazoline MMV675968 from Pathogen Box inhibits Acinetobacter baumannii growth through targeting of dihydrofolate reductase” (Scientific Reports, 2019)",
  "target": "T1, A. baumannii dihydrofolate reductase (AbDHFR) (Acinetobacter baumannii, UniProt A0A098SJI9)",
  "T1 construct": "gene folA; AbDHFR expressed from pET15b in E. coli BL21(DE3)",
  "assay": "DHFR activity assay (A340) in lysate of E. coli BL21(DE3) overexpressing AbDHFR",
  "format": "biochemical",
  "data": [
    {"smiles": "CN(Cc1cnc2nc(N)nc(N)c2n1)c1ccc(C(=O)N[C@@H](CCC(=O)O)C(=O)O)cc1", "note": "[MTX, methotrexate]", "values": [
      {"measurement": "IC50", "result": 4.8, "unit": "nM"}
    ]}
  ]
}
